The data set deals with CYP2C19 (Homo sapiens, UniProt P33261). Particulars: at 3.3 µM; tested in parallel.

By UniProt entry, the sequences of proteins in these tests, tags left out.
UniProt P33261, whole entry: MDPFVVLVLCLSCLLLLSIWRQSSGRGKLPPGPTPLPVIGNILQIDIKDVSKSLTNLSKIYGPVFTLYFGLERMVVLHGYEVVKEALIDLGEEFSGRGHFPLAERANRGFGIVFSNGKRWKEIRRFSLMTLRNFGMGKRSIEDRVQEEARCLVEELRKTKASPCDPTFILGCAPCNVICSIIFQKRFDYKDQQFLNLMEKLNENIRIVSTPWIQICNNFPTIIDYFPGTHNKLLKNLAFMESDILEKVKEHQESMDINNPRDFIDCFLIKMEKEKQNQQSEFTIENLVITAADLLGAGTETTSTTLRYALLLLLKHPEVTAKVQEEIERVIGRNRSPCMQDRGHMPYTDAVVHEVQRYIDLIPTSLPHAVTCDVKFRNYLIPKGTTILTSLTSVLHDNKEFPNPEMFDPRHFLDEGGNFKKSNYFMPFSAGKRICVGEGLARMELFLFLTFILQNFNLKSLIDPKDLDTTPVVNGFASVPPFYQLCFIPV

`N[C@@H]1C[C@H]1c1ccccc1` (racemic) [Tranylcypromine]: the “CYP2C19 inhibition, reference compound” value worked out at 43%.

Values taken from paper PMC11514582, “Leveraging the Aggregated Protein Dye YAT2150 for Malaria Chemotherapy” (Pharmaceutics, 2024).
